Values quoted from earlier work in publication PMC9459323 (Cancer Science, 2022).

Biological target: LDHA (Homo sapiens, UniProt P00338)
Details: read-out: LDHA IC50

## NC(=O)C(=O)O [Oxamate]
  IC50: ~800 µM
